Laboratory results published in patent publication US9694016B2 (Novartis AG, priority 2013, dated 2017).

The chains behind the UniProt entries cited, without tags or fusion partners.
UniProt P04049, whole entry Y340E/Y341E: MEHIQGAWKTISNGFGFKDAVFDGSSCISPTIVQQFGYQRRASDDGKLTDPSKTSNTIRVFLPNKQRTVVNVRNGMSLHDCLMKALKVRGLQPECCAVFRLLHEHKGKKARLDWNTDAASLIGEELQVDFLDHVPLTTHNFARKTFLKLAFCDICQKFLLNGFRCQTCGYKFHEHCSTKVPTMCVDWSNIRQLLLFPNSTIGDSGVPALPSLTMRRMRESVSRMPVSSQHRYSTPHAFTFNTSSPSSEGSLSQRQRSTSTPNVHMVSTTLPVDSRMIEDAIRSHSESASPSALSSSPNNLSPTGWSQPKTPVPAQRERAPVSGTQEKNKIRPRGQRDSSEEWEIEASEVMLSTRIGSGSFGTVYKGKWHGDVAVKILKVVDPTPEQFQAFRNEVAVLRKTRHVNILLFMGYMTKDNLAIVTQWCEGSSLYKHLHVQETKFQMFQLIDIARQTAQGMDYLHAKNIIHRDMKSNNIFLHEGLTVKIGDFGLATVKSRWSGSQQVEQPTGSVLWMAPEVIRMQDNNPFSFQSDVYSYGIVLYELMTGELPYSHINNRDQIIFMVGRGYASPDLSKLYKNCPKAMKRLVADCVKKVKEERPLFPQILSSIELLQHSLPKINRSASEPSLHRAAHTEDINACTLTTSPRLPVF

Molecular target: C-Raf FL (full-length C-Raf protein, Y340E and Y341E activating mutations) (Homo sapiens (Human), UniProt P04049, Y340E/Y341E)
Format: biochemical
Conditions: Table 2; AlphaScreen, 1 hour reaction; read-out: c-Raf FL IC-50

SMILES: Cc1ccc(NC(=O)c2cc(C3CC3)on2)cc1-c1cc(N2CCOCC2)c(=O)n(C)c1 [Example 372, 5-cyclopropyl-N-(4-methyl-3-(1-methyl-5-morpholino-6-oxo-1,6-dihydropyridin-3-yl)phenyl)isoxazole-3-carboxamide]
- IC50: 0.2 nM

SMILES: CCn1cc(C(=O)Nc2cnc(C)c(-c3cc(N4CCOCC4)c(=O)n(C)c3)c2)c(C)n1 [Example 373, N-(1′,2-dimethyl-5′-morpholino-6′-oxo-1′,6′-dihydro-[3,3′-bipyridin]-5-yl)-1-ethyl-3-methyl-1H-pyrazole-4-carboxamide]
- IC50: 200 nM

SMILES: Cc1nn(C)cc1C(=O)Nc1cnc(C)c(-c2cc(N3CCOCC3)c(=O)n(C)c2)c1 [Example 374, N-(1′,2-dimethyl-5′-morpholino-6′-oxo-1′,6′-dihydro-[3,3′-bipyridin]-5-yl)-1,3-dimethyl-1H-pyrazole-4-carboxamide]
- IC50: 600 nM

SMILES: Cc1nn(C(C)C)cc1C(=O)Nc1cnc(C)c(-c2cc(N3CCOCC3)c(=O)n(C)c2)c1 [Example 375, N-(1′,2-dimethyl-5′-morpholino-6′-oxo-1′,6′-dihydro-[3,3′-bipyridin]-5-yl)-1-isopropyl-3-methyl-1H-pyrazole-4-carboxamide]
- IC50: 43.4 nM

SMILES: Cc1cc(C(=O)Nc2cnc(C)c(-c3cc(N4CCOCC4)c(=O)n(C)c3)c2)n(C)n1 [Example 376, N-(1′,2-dimethyl-5′-morpholino-6′-oxo-1′,6′-dihydro-[3,3′-bipyridin]-5-yl)-1,3-dimethyl-1H-pyrazole-5-carboxamide]
- IC50: 700 nM

SMILES: Cc1ncc(NC(=O)c2cc(C3CC3)nn2C)cc1-c1cc(N2CCOCC2)c(=O)n(C)c1 [Example 377, 3-cyclopropyl-N-(1′,2-dimethyl-5′-morpholino-6′-oxo-1′,6′-dihydro-[3,3′-bipyridin]-5-yl)-1-methyl-1H-pyrazole-5-carboxamide]
- IC50: 61.9 nM

SMILES: Cc1ncc(NC(=O)c2cc(C(C)C)on2)cc1-c1cc(N2CCOCC2)c(=O)n(C)c1 [Example 379, N-(1′,2-dimethyl-5′-morpholino-6′-oxo-1′,6′-dihydro-[3,3′-bipyridin]-5-yl)-5-isopropylisoxazole-3-carboxamide]
- IC50: 1.4 nM

SMILES: Cc1ncc(NC(=O)c2cc(C3CC3)on2)cc1-c1cc(N2CCOCC2)c(=O)n(C)c1 [Example 380, 5-cyclopropyl-N-(1′,2-dimethyl-5′-morpholino-6′-oxo-1′,6′-dihydro-[3,3′-bipyridin]-5-yl)isoxazole-3-carboxamide]
- IC50: 2.6 nM

SMILES: Cc1cc(C(=O)Nc2ccc(C)c(-c3cc(N4CCOCC4)c(=O)n(C)c3)c2)n(C)n1 [Example 381, 1,3-dimethyl-N-(4-methyl-3-(1-methyl-5-morpholino-6-oxo-1,6-dihydropyridin-3-yl)phenyl)-1H-pyrazole-5-carboxamide]
- IC50: 25.5 nM

SMILES: Cc1ncc(NC(=O)c2cc(C(F)(F)F)nn2C)cc1-c1cc(N2CCOCC2)c(=O)n(C)c1 [Example 382, N-(1′,2-dimethyl-5′-morpholino-6′-oxo-1′,6′-dihydro-[3,3′-bipyridin]-5-yl)-1-methyl-3-(trifluoromethyl)-1H-pyrazole-5-carboxamide]
- IC50: 300 nM

SMILES: Cc1nc(C(=O)Nc2cnc(C)c(-c3cc(N4CCOCC4)c(=O)n(C)c3)c2)c(C)o1 [Example 383, N-(1′,2-dimethyl-5′-morpholino-6′-oxo-1′,6′-dihydro-[3,3′-bipyridin]-5-yl)-2,5-dimethyloxazole-4-carboxamide]
- IC50: 200 nM

SMILES: Cc1ncc(NC(=O)c2cccc(C(C)(C)C#N)c2)cc1-c1cc(N2CCOCC2)c(=O)n(C)c1 [Example 389, 3-(2-cyanopropan-2-yl)-N-(1′,2-dimethyl-5′-morpholino-6′-oxo-1′,6′-dihydro-[3,3′-bipyridin]-5-yl)benzamide]
- IC50: 14.1 nM

SMILES: Cc1ncc(NC(=O)c2ccnc(C(F)(F)F)c2)cc1-c1cc(N2CCOCC2)c(=O)n(C)c1 [Example 390, N-(1′,2-dimethyl-5′-morpholino-6′-oxo-1′,6′-dihydro-[3,3′-bipyridin]-5-yl)-2-(trifluoromethyl)isonicotinamide]
- IC50: 1.4 nM

SMILES: Cc1ncc(NC(=O)c2ccnc(C(C)(F)F)c2)cc1-c1cc(N2CCOCC2)c(=O)n(C)c1 [Example 391, 2-(1,1-difluoroethyl)-N-(1′,2-dimethyl-5′-morpholino-6′-oxo-1′,6′-dihydro-[3,3′-bipyridin]-5-yl)isonicotinamide]
- IC50: 4.5 nM

SMILES: Cc1ncc(NC(=O)c2ccnc(C(F)F)c2)cc1-c1cc(N2CCOCC2)c(=O)n(C)c1 [Example 392, 2-(difluoromethyl)-N-(1′,2-dimethyl-5′-morpholino-6′-oxo-1′,6′-dihydro-[3,3′-bipyridin]-5-yl)isonicotinamide]
- IC50: 3.9 nM

SMILES: Cc1ncc(NC(=O)c2cccc(C(C)(F)F)c2)cc1-c1cc(N2CCOCC2)c(=O)n(C)c1 [Example 393, 3-(1,1-difluoroethyl)-N-(1′,2-dimethyl-5′-morpholino-6′-oxo-1′,6′-dihydro-[3,3′-bipyridin]-5-yl)benzamide]
- IC50: 1.3 nM

SMILES: Cc1ncc(NC(=O)c2cccc(C(F)F)c2)cc1-c1cc(N2CCOCC2)c(=O)n(C)c1 [Example 394, 3-(difluoromethyl)-N-(1′,2-dimethyl-5′-morpholino-6′-oxo-1′,6′-dihydro-[3,3′-bipyridin]-5-yl)benzamide]
- IC50: 1 nM

SMILES: CCOc1cc(C(=O)Nc2cnc(C)c(-c3cc(N4CCOCC4)c(=O)n(C)c3)c2)ccc1F [Example 395, N-(1′,2-dimethyl-5′-morpholino-6′-oxo-1′,6′-dihydro-[3,3′-bipyridin]-5-yl)-3-ethoxy-4-fluorobenzamide]
- IC50: 2.2 nM

SMILES: Cc1ncc(NC(=O)c2ccc(F)c(OC(C)C)c2)cc1-c1cc(N2CCOCC2)c(=O)n(C)c1 [Example 396, N-(1′,2-dimethyl-5′-morpholino-6′-oxo-1′,6′-dihydro-[3,3′-bipyridin]-5-yl)-4-fluoro-3-isopropoxybenzamide]
- IC50: 5 nM

SMILES: CCOc1cccc(C(=O)Nc2cnc(C)c(-c3cc(N4CCOCC4)c(=O)n(C)c3)c2)c1 [Example 397, N-(1′,2-dimethyl-5′-morpholino-6′-oxo-1′,6′-dihydro-[3,3′-bipyridin]-5-yl)-3-ethoxybenzamide]
- IC50: 3.4 nM

SMILES: Cc1ncc(NC(=O)c2cccc(OC(C)C)c2)cc1-c1cc(N2CCOCC2)c(=O)n(C)c1 [Example 398, N-(1′,2-dimethyl-5′-morpholino-6′-oxo-1′,6′-dihydro-[3,3′-bipyridin]-5-yl)-3-isopropoxybenzamide]
- IC50: 3.1 nM

SMILES: Cc1ncc(NC(=O)c2ccnc(C(C)(C)C)c2)cc1-c1cc(N2CCOCC2)c(=O)n(C)c1 [Example 399, 2-(tert-butyl)-N-(1′,2-dimethyl-5′-morpholino-6′-oxo-1′,6′-dihydro-[3,3′-bipyridin]-5-yl)isonicotinamide]
- IC50: 14.8 nM

SMILES: Cc1ncc(NC(=O)c2ccnc(C(C)C)c2)cc1-c1cc(N2CCOCC2)c(=O)n(C)c1 [Example 400, N-(1′,2-dimethyl-5′-morpholino-6′-oxo-1′,6′-dihydro-[3,3′-bipyridin]-5-yl)-2-isopropylisonicotinamide]
- IC50: 3.3 nM

SMILES: CCN1CCN(c2cc(C(=O)Nc3cnc(C)c(-c4cc(N5CCOCC5)c(=O)n(C)c4)c3)cc(C(F)(F)F)c2)CC1 [Example 402, N-(1′,2-dimethyl-5′-morpholino-6′-oxo-1′,6′-dihydro-[3,3′-bipyridin]-5-yl)-3-(4-ethylpiperazin-1-yl)-5-(trifluoromethyl)benzamide]
- IC50: 12.3 nM
